As a reminder, the solubility is the concentration that dissolves in the medium under given conditions. Read a high solubility as a readily soluble substance.

Some results are limits rather than exact numbers.

Among the data in patent publication US6777578B2, “Hydroxyphenstatin and the prodrugs thereof” (Arizona Board of Regents, priority 2000, dated 2004) are solubility values, retold here.

A short description of the data set: Solubility in distilled water. The format is physicochemical. Particulars: distilled water at 25° C.

“Potassium Hydroxyphenstatin Diphosphate [Compound 6g]” had a solubility of more than 100 mg/mL.
